# Yeast mating assay 1: variants of the scFv Ab-14

Antigen: PDVDLGDISGINAS, a 14-residue peptide of the SARS-CoV-2 spike HR2 region.

The variants keep the light chain, the linker and the frameworks of Ab-14 (scFv order VH, a 15-residue (Gly4Ser)3 linker, VL).
VH: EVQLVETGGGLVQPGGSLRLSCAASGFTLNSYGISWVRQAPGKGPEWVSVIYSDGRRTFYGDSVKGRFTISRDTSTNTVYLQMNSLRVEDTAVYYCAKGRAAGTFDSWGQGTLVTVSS
VL: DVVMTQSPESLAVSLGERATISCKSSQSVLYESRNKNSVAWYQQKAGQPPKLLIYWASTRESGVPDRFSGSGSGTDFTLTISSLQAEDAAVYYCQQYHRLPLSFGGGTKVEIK

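Phage display of a naive human antibody library on the peptide gave the parent. AAYL49 was designed without a model: most single CDR substitutions and a random sample of double and triple ones. The assay is AlphaSeq: two haploid yeast populations carry antibody and antigen on their surface. Pairs that bind mate more often; barcode pairs of the diploids are counted by sequencing. The ratio of observed to expected reads was calibrated, replicate by replicate, on BCL2-family standards whose Kd was known from biolayer interferometry. Each pool was mated in three replicate cultures.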

The parent's heavy chain CDRs are GFTLNSYGIS, VIYSDGRRTFYGDSVK, GRAAGTFDS; each variant's own CDRs replace them letter for letter. All variants listed here change V50 of the VH, counted from its first residue. Affinities are written as log10 Kd with Kd in nM; a lower number is a better binder. A pair that was not seen in that replicate is written "nd"; this usually means weak binding, but a binder can also be missed. For reference, the parent read 0.65 as the reference entry and 4.11 (one replicate of three) as a member of this library. Empty control strains, which show no peptide, gave a signal in 15% of pairings with library AAYL49; the median was 4.06 and 95% of these signals were weaker than 2.83. No background was subtracted.

Variant GFTLNSYAIS / HIYSDGRRRFYGDSVK / GRAAGTFDS showed nd, nd, nd. Variant WFTLNSYGIS / IIYSDGRRTFYGDSVK / GRAAGTFDK showed nd, nd, nd. Variant GFTQNSYGIS / HIYSDGRATFYGDSVK / GRAAGTFDS gave nd, 2.98, 5.16. With GFTLNSYRIS / CIYSDGRWTFYGDSVK / GRAAGTFDS the result was nd, nd, 3.76. Variant GFTLNSYAIS / TIYSDGRRTFYGDSVK / DRAAGTFDS gave nd, 4.12, nd. With GFTLNSYGIS / HIYSDGRRTFYGDSVY / GRAAGTFDS the result was nd, 2.63, nd. For GFTCNSYGIS / GYYSDGRRTFYGDSVK / GRAAGTFDS, the assay gave nd, nd, nd.

For GFTLNSYGIS / NIYSDGRPTFYGDSVK / MRAAGTFDS, the assay gave nd, nd, nd. Variant GFTLNSYGIS / HIYSDGRRTFYGDSAH / GRAAGTFDS gave nd, nd, nd. Variant GFTLNSSGIN / QIYSDGRRTFYGDSVK / GRAAGTFDS gave 4.26, 3.76, 5.42. For GFTLNSNGIS / KIYSDGRRTFYGDSVK / GRAAGTEDS, the assay gave nd, nd, nd. Variant GFTLNSYGIS / NIYMDGRRTFYGDSVK / GRAAGTFGS showed 3.77, 3.52, nd. Variant GFTLNSYGIS / EIYSYGRRTFYGDSVK / GRAVGTFDS showed nd, nd, nd. With GFTLNSYSIS / SIYSDGRRTFYGDSVK / GRAAGTFDS the result was nd, nd, 4.72.

Variant GFTLNSYGIS / MIYSDGRRTHYGDSVK / GRAAGEFDS showed nd, nd, nd. Variant GFTNNSYGIS / DIYSDGRQTFYGDSVK / GRAAGTFDS showed 4.64, nd, nd. For GFTLNSYGIS / QIYSDGRRTFYGDSVK / GRAAGRFDS, the assay gave nd, nd, 3.19. Variant GMTLNSYGIS / EIYSDGRPTFYGDSVK / GRAAGTFDS showed nd, nd, nd. Variant GFTLNSYGIS / PIYSDLRRTFYGDSVK / GRSAGTFDS showed nd, 3.39, nd. With GFTLNSRGIS / IIYSDGRRTFYGDSVK / GRAAGPFDS the result was nd, nd, nd. For GFTLNSYGIS / RIYSDGRRTFYGDSVK / GRAACTQDS, the assay gave 3.12, nd, 4.68.

Variant GFTLNSYGIA / YCYSDGRRTFYGDSVK / GRAAGTFDS showed nd, nd, nd. For GFTLNSYGIS / GIYSDGRRTFYGDSVK / GRAAGTFDS, the assay gave 4.81, 5.55, 6.54. Variant GFTLNSYGIS / HIYSDGRRTFYGDSVK / GRAAGTFDS gave 3.58, 4.88, nd. With GFTLNSYGIS / IIYSDGRATFYGDSVK / GRAAGTFDS the result was nd, nd, nd. Variant GFTLNSYGIS / GIYSDGRRTFYGQMVK / GRAAGTFDS showed 3.29, nd, nd. For GFTTNSYMIS / DIYSDGRRTFYGDSVK / GRAAGTFDS, the assay gave nd, nd, 2.98. Variant PFTLNSYGIS / WIYSDGRRTFYGDSVK / GRAATTFDS showed nd, nd, nd.

Variant GFTLNSVGIS / TIYSDGRRYFYGDSVK / GRAAGTFDS showed nd, nd, nd. Variant GFTLYEYGIS / WIYSDGRRTFYGDSVK / GRAAGTFDS showed nd, nd, nd. With GFTLNSYGIS / SIYYDGRRTFYGDSVK / GRAAFTFDS the result was 4.40, nd, nd. For GTTENSYGIS / QIYSDGRRTFYGDSVK / GRAAGTFDS, the assay gave nd, nd, nd. Variant GFTLNSYGIS / MIYSDGFRTFYGDSVK / GRAAGTFNS showed nd, nd, nd. Variant GFTLNSYGIS / SIYSDGRITFYGDSVK / GRAAGTFDS gave 3.87, 4.35, 4.38. Variant TFTLNSYGIS / IIYSDGRRTFYGCSVK / GRAAGTFDS gave nd, nd, nd.

With GFTLNSYGKS / QIYSDQRRTFYGDSVK / GRAAGTFDS the result was 4.54, nd, nd. Variant IFTLNPYGIS / TIYSDGRRTFYGDSVK / GRAAGTFDS gave nd, nd, nd. Variant GFTLNRYLIS / WIYSDGRRTFYGDSVK / GRAAGTFDS showed 4.40, nd, 3.93. Variant GFNLNSYGIS / RIYSDGRRTFYGDSVK / ERAAGTFDS showed nd, nd, nd. Variant GFTLNSYGIS / GIYSDGRRTFYGLSVK / GRAAGTFDS showed nd, nd, nd. Variant GFTLNSYGIL / MIYSDGRRTFYGDPVK / GRAAGTFDS showed nd, nd, nd. Variant GFTLNSYGIS / TIYSDGRRTFYGDSVK / GRAAGTFDS gave 4.48, 3.57, 5.31.

With GFTLMSYGIS / KIYSDGRRTFYGDSVK / GRAAGTFDD the result was nd, nd, nd. Variant GFTLNSYGIV / PIYSDGRRTFYGDSVK / GRMAGTFDS showed nd, 3.92, 3.97. Variant GFTLNSYGIE / EIYSDGRRTFYRDSVK / GRAAGTFDS showed 3.49, nd, nd. For GFTLNSYGIS / IIYSDGRRQFYGDSVK / GRAASTFDS, the assay gave 5.40, nd, nd. For GFTLNSYGIS / SIGSDGRRTFYGDSVK / GRAAGRFDS, the assay gave 3.22, nd, nd.

A selection of 4 entries from above:

Variant GFTLNSYGIS / PIYSDLRRTFYGDSVK / GRSAGTFDS showed nd, 3.39, nd.
Variant GFTLNSYGIS / HIYSDGRRTFYGDSVY / GRAAGTFDS showed nd, 2.63, nd.
Variant GFTLNSYGIS / GIYSDGRRTFYGLSVK / GRAAGTFDS showed nd, nd, nd.
Variant GFTLMSYGIS / KIYSDGRRTFYGDSVK / GRAAGTFDD showed nd, nd, nd.

Data: MIT Lincoln Laboratory AlphaSeq set, Engelhart et al. 2022, doi:10.1038/s41597-022-01779-4, as distributed in FLAb.